Experimental data from patent publication US9656978B2, “Acylpiperazines as inhibitors of transglutaminase and their use in medicine” (ASTON UNIVERSITY, priority 2012, dated 2017).
pIC50: −log10 of the molar value. Where two headings read alike, the source gives them in different places.

Chains of the proteins cited; added tags and fusions are not shown. Residues count along the entry.
UniProt P21980, whole entry: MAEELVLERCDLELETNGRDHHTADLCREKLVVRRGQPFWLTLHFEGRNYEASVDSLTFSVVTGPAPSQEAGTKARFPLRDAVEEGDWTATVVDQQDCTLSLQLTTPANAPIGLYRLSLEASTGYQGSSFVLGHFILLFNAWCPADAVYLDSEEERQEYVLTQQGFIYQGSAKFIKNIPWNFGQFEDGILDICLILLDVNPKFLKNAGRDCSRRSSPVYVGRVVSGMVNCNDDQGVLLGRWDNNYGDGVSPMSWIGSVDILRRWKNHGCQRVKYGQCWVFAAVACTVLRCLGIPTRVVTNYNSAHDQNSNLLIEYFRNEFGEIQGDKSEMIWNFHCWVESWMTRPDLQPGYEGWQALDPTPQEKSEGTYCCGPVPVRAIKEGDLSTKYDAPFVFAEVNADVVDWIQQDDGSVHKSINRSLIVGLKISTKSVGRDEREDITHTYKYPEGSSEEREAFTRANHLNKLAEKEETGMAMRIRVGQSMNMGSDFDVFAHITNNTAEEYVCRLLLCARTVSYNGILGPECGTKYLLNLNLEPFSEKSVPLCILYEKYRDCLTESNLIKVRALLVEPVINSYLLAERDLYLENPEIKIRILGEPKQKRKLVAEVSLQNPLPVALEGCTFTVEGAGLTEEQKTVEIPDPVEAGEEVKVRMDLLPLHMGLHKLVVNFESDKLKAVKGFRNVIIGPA
UniProt Q08188, whole entry: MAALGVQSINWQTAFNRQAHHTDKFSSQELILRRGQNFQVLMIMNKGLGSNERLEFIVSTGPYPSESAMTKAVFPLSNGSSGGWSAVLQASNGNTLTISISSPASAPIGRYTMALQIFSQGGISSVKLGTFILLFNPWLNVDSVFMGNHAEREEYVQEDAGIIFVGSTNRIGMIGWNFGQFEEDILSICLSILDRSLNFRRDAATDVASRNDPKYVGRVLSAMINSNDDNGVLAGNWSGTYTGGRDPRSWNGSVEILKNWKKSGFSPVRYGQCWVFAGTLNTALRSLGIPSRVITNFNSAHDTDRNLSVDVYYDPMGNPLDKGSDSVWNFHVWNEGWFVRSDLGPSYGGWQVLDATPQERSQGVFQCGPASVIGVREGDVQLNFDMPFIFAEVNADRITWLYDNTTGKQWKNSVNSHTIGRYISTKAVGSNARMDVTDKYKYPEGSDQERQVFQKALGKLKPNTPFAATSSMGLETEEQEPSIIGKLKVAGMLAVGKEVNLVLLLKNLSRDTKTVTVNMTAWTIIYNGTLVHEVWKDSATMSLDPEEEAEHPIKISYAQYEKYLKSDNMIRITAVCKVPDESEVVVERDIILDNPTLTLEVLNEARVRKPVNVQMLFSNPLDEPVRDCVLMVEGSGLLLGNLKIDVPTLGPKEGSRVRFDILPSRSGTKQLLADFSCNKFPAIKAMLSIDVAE
UniProt P00488, 39-732 limits assumed: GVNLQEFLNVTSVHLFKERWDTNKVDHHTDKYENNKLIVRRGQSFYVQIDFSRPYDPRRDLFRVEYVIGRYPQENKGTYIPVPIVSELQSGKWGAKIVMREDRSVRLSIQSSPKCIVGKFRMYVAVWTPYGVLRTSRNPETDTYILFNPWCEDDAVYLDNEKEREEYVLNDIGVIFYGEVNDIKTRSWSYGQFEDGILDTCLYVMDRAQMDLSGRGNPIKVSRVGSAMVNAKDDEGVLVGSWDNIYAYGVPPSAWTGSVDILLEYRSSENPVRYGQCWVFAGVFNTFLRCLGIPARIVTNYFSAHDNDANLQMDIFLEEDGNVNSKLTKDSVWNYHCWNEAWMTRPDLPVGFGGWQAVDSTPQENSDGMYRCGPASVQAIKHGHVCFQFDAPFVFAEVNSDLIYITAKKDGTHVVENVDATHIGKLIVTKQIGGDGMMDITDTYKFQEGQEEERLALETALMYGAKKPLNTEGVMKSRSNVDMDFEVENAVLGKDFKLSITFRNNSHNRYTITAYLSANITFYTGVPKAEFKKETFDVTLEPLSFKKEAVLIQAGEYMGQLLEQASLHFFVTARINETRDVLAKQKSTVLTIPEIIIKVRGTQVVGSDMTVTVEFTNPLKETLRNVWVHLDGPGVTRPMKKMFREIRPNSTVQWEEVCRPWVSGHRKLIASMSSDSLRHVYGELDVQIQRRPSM
UniProt P22735, whole entry: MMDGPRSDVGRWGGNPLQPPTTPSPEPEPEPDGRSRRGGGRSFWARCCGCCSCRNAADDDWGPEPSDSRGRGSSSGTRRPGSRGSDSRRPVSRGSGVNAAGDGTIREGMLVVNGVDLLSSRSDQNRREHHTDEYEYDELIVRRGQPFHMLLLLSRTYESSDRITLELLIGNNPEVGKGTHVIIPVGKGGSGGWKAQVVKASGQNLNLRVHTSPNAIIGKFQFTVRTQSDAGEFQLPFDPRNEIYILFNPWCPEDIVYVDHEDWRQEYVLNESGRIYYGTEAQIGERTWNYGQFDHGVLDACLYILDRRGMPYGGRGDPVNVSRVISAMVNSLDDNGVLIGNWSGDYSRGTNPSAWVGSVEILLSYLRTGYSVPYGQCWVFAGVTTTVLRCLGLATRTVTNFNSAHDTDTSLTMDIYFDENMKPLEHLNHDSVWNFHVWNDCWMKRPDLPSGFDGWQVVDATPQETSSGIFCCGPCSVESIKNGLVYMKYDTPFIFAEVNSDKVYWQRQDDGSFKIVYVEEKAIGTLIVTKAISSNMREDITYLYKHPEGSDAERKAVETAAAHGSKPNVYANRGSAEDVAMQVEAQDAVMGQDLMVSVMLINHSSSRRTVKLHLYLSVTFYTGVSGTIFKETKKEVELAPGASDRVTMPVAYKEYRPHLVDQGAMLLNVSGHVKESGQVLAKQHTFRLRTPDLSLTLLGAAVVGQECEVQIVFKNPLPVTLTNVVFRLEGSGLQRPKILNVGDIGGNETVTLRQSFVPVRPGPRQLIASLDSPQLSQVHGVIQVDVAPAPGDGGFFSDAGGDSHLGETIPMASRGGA

Columns and labels:
Type in all cases: biochemical
[1] = target: purified recombinant human TG2 (tissue transglutaminase) (Homo sapiens, UniProt P21980); test: TG2 transamidation activity, biotin X-cadaverine incorporation into N,N′-dimethylcasein (Example 2); settings: read-out: IC50 for TG2, recombinant human TG2 400 ng/ml, 2 h at 37° C.
transglutaminase 3 = transglutaminase 3 (Homo sapiens, UniProt Q08188); test: TG-CovTest commercial microassay, transglutaminase 3; settings: read-out: Estimated IC50 TG3, tested form: bromide
Factor X111a = Factor X111a (Homo sapiens, UniProt P00488); test: TG-CovTest commercial microassay, Factor X111a; settings: read-out: Estimated IC50 FXIII, tested form: bromide
transglutaminase 1 = transglutaminase 1 (Homo sapiens, UniProt P22735); test: TG-CovTest commercial microassay, transglutaminase 1; settings: read-out: Estimated IC50 TG1, tested form: bromide

pIC50 [1]	pIC50 ([1]; tested form: bromide)	SMILES	other results
< 4.00	–	C=CC(=O)N[C@@H](C)C(=O)N1CCN(C(=O)OCc2ccccc2)CC1	–
< 4.00	–	C=CC(=O)N[C@@H](Cc1ccccc1)C(=O)N1CCN(C(=O)OCc2ccccc2)CC1	–
< 4.00	–	C=CC(=O)N[C@H](C)C(=O)N1CCN(C(=O)OCc2ccccc2)CC1	–

Continued, compound first:

SMILES	pIC50 [1]	pIC50 ([1]; tested form: bromide)	other results
C[C@H](NC(=O)C[S+](C)C)C(=O)N1CCN(C(=O)OCc2ccccc2)CC1	–	6.15	–
COC(=O)c1ccc(COC(=O)N2CCN(C(=O)CNC(=O)C[S+](C)C)CC2)cc1	–	–	pIC50 (transglutaminase 3): < 4.00; pIC50 (Factor X111a): 4.00; pIC50 (transglutaminase 1): < 4.00
C[C@@H](NC(=O)C[S+](C)C)C(=O)N1CCN(C(=O)OCc2ccccc2)CC1	–	5.17	–
